What was measured:
Mus musculus [1] = organism: Mus musculus; conditions: CD1, 0.1 mg/kg
Mus musculus [2] = organism: Mus musculus; conditions: CD1, 0.1 mg/kg; remark: listed apart in the source
Mus musculus [3] = organism: Mus musculus; conditions: CD1, 5 mg/kg
Mus musculus [4] = organism: Mus musculus; conditions: CD1, 5 mg/kg; remark: listed apart in the source
Mus musculus [5] = organism: Mus musculus; conditions: CD1, 5 mg/kg; remark: listed apart in the source
Mus musculus [6] = organism: Mus musculus; conditions: CD1, 5 mg/kg; remark: listed apart in the source
Mus musculus [7] = organism: Mus musculus; conditions: CD1, 5 mg/kg; remark: listed apart in the source
Mus musculus [8] = organism: Mus musculus; conditions: CD1, 5 mg/kg; remark: listed apart in the source

Which deltaT (Mus musculus [1]) does the source give for `COc1ccccc1N1CCN(CCN(C(=O)C2CCCCC2)c2ccccn2)CC1` here?
Its deltaT is -0.2 °C.

What about the deltaT (Mus musculus [2]) of the same compound?
The deltaT was -0.2 °C.

Which results are given for `CCCN(CCC)C1CCc2cccc(O)c2C1` (stereo not drawn)?
deltaT (Mus musculus [3]): -1.3 °C; deltaT (Mus musculus [4]): -0.2 °C; deltaT (Mus musculus [5]): -0.1 °C; deltaT (Mus musculus [6]): -0.5 °C; deltaT (Mus musculus [7]): -0.9 °C; deltaT (Mus musculus [8]): -1.4 °C

Reference: ChEMBL document CHEMBL2375249, “Synthesis and biological evaluation of novel pyrrolidine-2,5-dione derivatives as potential antidepressant agents. Part 1” (Eur J Med Chem, 2013)
